pKi: −log10 of the molar value.
How the values were obtained:
[1] = target: T1, 5-hydroxytryptamine receptor 2C (Rattus norvegicus, UniProt P08909); assay: Binding affinity against rat 5-hydroxytryptamine 2C receptor in A-9 cells.; format: cell-based
T1 sequence (P08909 whole entry): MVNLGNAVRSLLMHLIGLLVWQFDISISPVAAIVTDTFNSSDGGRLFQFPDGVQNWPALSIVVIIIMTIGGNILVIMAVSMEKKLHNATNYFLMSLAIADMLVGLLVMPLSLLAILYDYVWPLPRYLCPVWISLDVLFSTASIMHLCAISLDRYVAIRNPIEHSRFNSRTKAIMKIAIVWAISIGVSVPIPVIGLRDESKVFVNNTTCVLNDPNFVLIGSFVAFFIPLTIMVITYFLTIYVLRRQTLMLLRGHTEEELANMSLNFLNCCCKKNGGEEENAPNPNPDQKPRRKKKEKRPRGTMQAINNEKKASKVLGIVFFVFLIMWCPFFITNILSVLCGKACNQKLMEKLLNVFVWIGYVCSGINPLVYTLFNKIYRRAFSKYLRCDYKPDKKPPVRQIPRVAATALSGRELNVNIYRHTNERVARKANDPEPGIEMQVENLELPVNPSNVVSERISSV
In short: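 A-9 cells expressing rat 5-HT2C grown to confluence, homogenized membranes (~10 μg protein) in pH 7.4 Tris/MgCl2/EDTA buffer; 1 nM [3H]mesulergine displaced by test agent, nonspecific defined by 10 μM mesulergine; 30 min at 37 °C, filtration, scintillation counting; Ki from three or more determinations.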

Protein sequences, listed by entry. Tags and fused reporters are not part of them.
UniProt P14842, whole entry: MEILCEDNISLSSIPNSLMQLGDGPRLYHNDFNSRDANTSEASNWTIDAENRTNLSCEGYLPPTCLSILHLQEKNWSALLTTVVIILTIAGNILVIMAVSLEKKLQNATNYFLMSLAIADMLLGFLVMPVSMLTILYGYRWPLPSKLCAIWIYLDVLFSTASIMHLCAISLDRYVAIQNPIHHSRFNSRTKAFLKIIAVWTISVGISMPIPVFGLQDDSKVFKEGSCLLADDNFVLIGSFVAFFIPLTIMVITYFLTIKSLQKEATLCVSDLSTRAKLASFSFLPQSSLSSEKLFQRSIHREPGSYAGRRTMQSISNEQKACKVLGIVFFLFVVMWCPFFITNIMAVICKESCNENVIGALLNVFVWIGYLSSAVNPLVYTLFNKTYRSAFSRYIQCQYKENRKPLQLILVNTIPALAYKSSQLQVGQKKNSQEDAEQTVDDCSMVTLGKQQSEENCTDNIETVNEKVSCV

[2] = target: 5-hydroxytryptamine receptor 2A (Rattus norvegicus, UniProt P14842); assay: Binding affinity against rat 5-hydroxytryptamine 2A receptor in NIH3T3 cells.; format: cell-based

`O=C(CCCN1CCC2(CC1)C(=O)NCN2c1ccccc1)c1ccc(F)cc1` [SPIPERONE] gave a pKi [1] of 5.80 and a pKi [2] of 8.74.

Source: ChEMBL document CHEMBL1131425 (J Med Chem, 1998)
